Target: T1, GSK3β-mediated phosphorylation of Cyclin D1 (Homo sapiens, UniProt P49841)
T1 construct: we used only GSK3β (26–383) kinase domain constructs in our cellular studies; expressed in transfected cells; host or cells: HEK293T (pcDNA3.1, transient)
Test: Cyclin D1 phosphorylation profile (Western Blot) in transfected HEK293T cells
Type: cell-based
Conditions: HA-Cyclin D1 + FLAG-GSK3β, 10 μM, 3 h

Chains of the proteins cited; added tags and fusions are not shown. Residues count along the entry.
UniProt P49841, 26-383: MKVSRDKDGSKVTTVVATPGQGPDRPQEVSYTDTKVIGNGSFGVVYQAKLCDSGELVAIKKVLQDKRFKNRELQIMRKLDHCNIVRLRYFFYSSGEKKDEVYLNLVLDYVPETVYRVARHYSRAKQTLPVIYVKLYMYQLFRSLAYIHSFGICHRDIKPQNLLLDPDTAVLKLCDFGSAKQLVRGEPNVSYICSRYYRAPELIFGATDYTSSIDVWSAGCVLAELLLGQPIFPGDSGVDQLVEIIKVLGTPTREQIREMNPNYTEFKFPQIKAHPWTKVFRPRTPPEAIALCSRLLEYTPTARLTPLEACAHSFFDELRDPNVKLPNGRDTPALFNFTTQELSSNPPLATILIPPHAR

With `O=C(O)c1ccc2c(c1)nc(Nc1cccc(Cl)c1)c1ccncc12` [CX-4945, 5-(3-Chlorophenylamino)benzo[c][2,6]naphthyridine-8-carboxylic Acid] the “effect on GSK3β-mediated Cyclin D1 phosphorylation” value was “complete inhibition”.

Source: publication PMC10041529 (Journal of Medicinal Chemistry, 2023)
